Data reported in ChEMBL document CHEMBL1772984, “Inhibitor selectivity of a new class of oseltamivir analogs against viral neuraminidase over human neuraminidase enzymes” (Bioorg Med Chem, 2011).

Molecular target: T1, Sialidase-4 (Homo sapiens, UniProt Q8WWR8)
T1 sequence (Q8WWR8 whole entry): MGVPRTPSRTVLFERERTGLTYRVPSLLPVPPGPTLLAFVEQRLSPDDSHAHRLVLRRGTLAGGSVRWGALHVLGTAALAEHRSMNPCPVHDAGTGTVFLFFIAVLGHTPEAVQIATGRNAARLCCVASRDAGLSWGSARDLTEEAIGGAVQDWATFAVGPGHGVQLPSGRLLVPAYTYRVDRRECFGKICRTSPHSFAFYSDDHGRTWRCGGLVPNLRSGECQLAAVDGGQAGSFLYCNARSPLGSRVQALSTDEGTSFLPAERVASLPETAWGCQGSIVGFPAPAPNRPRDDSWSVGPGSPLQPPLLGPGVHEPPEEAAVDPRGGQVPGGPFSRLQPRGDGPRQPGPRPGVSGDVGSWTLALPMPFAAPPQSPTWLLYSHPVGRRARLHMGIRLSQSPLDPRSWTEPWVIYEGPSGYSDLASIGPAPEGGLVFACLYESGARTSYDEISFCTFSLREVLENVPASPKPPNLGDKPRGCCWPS
Assay: Inhibition of human NEU4 using 4MU-NA as substrate after 1 hr by fluorescence assay
In short: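 Recombinant human NEU4 was used as a GST fusion, expressed in E. coli BL21(DE3) pLysS and glutathione-agarose purified. Enzyme (0.1 mg/mL before mixing) was preincubated 30 min at 37 °C with inhibitor (eight serial-dilution concentrations, five replicates). 4MU-NA was added from a 1 mM stock in 0.1 M sodium acetate pH 4.5 for 1 h.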

- IC50: 22 µM
Compound: CC(=O)N[C@H]1[C@H]([C@H](O)[C@H](O)CO)OC(C(=O)O)=C[C@@H]1O [NEU5AC2EN]
